Where two headings read alike, the source gives them in different places.
Tests used:
ALK+ NSCLC = details: patients treated with crizotinib in clinical trials to date; cited from earlier work

Question: With C[C@@H](Oc1cc(-c2cnn(C3CCNCC3)c2)cnc1N)c1c(Cl)ccc(F)c1Cl [crizotinib, reference compound] as the compound, how does the “median time to disease progression” value (ALK+ NSCLC) read?
Answer: The value was 10 months.

Question: And the T/C value (H3122 xenografts; crizotinib 50 mg/kg p.o. 5×/week)?
Answer: Its T/C value is 55%.

Question: And the body weight (H3122 xenografts; crizotinib 100 mg/kg)?
Answer: Its body weight is “significant losses of body weight”.

Question: And the T/C value (H3122 xenografts; crizotinib at its MTD (100 mg/kg), 5×/week)?
Answer: The T/C value was 39%.

Source: patent US8906885B2 (dated 2014)
